Data from ChEMBL document CHEMBL5236598, “Lead Optimization and Avoidance of Metabolic-perturbing Motif Developing Novel Diarylpyrimidines as Potent HIV-1 NNRTIs” (J Med Chem, 2022).

Target: Human immunodeficiency virus type 1 reverse transcriptase (Human immunodeficiency virus 1, UniProt Q72547)
Test: Binding affinity to HIV-1 reverse transcriptase assessed as dissociation constant by SPR analysis

Structure (SMILES): Cc1cc(C#N)cc(C)c1Oc1nc(Nc2ccc(C#N)cc2)nc(N)c1Br [ETRAVIRINE]
- Kd: 1.46 µM
